Experimental data as given in patent US20030073132A1, “Method for the screening of alpha2delta-1 subunit binding ligands” (priority 1999, published 2003).
Several values for one entry are separate records, joined by “and”; a condition that tells them apart may be missing. Identical values can stand only once. Like-named read-outs stand apart in the source and are kept apart here.

The chains behind the UniProt entries cited, without tags or fusion partners. Where a name states a change or a piece, a line headed by the entry shows the natural chain unless it says otherwise. Residues count along the entry.
UniProt A0A287BIN3, 25-1109 limits assumed: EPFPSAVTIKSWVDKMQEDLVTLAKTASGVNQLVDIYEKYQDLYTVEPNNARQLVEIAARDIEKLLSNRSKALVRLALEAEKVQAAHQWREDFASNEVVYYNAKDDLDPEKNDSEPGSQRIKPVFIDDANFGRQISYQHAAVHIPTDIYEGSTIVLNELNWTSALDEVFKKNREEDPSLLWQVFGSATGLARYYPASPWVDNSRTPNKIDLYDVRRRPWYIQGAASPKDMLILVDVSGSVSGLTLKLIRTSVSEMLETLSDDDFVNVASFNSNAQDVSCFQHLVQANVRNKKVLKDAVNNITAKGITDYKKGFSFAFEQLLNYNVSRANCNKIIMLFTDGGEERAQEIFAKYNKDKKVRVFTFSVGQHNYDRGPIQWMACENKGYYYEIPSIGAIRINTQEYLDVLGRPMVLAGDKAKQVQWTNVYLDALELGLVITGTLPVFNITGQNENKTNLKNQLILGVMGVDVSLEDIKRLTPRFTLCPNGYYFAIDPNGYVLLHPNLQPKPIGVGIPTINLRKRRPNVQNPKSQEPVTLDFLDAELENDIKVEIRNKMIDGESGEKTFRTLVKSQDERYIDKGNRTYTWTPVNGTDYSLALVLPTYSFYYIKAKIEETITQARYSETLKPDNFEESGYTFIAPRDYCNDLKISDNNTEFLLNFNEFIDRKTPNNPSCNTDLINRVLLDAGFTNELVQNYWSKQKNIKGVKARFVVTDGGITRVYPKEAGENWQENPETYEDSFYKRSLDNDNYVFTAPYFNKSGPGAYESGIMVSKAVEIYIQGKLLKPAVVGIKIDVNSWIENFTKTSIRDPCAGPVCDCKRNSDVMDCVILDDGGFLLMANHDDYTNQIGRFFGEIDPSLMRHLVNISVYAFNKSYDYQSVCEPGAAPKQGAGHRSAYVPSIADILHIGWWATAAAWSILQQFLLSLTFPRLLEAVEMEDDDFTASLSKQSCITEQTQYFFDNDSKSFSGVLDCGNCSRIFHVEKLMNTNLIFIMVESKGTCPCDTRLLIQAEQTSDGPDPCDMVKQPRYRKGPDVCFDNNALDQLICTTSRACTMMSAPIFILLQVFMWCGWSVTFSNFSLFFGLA
UniProt O77773, 25-1091: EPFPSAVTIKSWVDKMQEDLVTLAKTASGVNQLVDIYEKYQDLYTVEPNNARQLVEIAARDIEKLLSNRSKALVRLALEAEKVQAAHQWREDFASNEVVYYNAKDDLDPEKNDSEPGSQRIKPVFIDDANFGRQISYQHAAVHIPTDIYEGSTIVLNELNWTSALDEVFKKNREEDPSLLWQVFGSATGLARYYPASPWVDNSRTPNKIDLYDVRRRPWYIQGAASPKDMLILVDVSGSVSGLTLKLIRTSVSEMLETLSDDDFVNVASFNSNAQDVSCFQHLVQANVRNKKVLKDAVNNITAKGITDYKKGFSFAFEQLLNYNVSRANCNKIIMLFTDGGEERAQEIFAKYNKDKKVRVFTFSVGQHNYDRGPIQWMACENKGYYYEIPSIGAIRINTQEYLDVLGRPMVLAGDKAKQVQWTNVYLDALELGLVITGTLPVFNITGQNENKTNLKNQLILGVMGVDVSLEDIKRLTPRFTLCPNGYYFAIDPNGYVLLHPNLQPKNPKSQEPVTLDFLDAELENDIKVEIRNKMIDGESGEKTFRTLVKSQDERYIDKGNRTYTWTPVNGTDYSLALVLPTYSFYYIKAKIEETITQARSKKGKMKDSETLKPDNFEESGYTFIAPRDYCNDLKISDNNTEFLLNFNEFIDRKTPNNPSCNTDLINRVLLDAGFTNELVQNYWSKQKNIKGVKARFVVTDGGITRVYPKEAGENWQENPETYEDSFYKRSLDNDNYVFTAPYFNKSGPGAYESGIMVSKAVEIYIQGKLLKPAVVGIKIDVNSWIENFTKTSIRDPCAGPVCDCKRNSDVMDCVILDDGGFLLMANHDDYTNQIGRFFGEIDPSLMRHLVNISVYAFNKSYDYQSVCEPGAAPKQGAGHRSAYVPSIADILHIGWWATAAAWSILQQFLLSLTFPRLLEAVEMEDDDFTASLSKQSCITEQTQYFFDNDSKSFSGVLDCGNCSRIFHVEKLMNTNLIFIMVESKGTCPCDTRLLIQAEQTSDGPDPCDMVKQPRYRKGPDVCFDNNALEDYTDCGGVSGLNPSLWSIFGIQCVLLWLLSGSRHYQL

Legend:
[1] = target: porcine α2δ-1b-6His (SEQ ID No 9) (Sus scrofa, UniProt A0A287BIN3); settings: [3H]gabapentin 10-13 nM
[2] = target: [^3H]gabapentin site in porcine cortical membranes (Sus scrofa, UniProt O77773); test: [3H]gabapentin binding in porcine cortical membranes; settings: […] ± S.E.M., n = 3
Description: In cases where the α2δ-1 binding site is the [^3H]gabapentin binding site, the preferred labelled compound which can be used is of course gabapentin itself. However, gabapentin is not the only labelled compound which can be used in this context.

1-aminoethyl-cyclohexane acetic acid [Gabapentin]
Ki ([1]; read-out: Ki, Flash plate (3 μl protein used, n = 2), single experiments, Ki = IC50/(1 + [L]/KD), 3 h incubation, acetic acid): 10.4 nM and 7.97 nM
Ki ([1]; read-out: Ki, Flash plate, Mean (geometric), geometric mean of n = 2): 9.1 nM
IC50 [2]: 42.1 ± 5.5 nM
